This is an account of results in patent US6436639B1, “Bak promoter expression system” (Tanox, Inc., priority 1997, dated 2002).

One series deals with bak intron 1 ISRE. The class given is cell-based, human. The procedure: (§1) To examine the transcription factors that specifically bind promoter and neighboring elements of the bak gene and presumably mediate INF-γ and poly (I-C) induction of bak mRNA synthesis, electrophoretic mobility shift and supershift assays were performed. […] These oligonucleotides were radioactively end-labelled with ^32P-ATP and T4 polynucleotide kinase, and allowed to interact with nuclear extracts prepared from HT-29 cells as described (Bomsztyk, K. et al. J. Biol. Chem. 265:9413 (1990)). The cells were pre-treated with INF-α, -β, or -γ, or poly (I-C) as described in Example 5. Binding reactions were carried out in a total volume of 20 μl, containing nuclear extract (10 μg total protein), labeled DNA (50,000 cpm), varying amounts of unlabeled competitor oligonucleotide and poly (I-C) (1 μg) in EMSA buffer (5 mM KCl, 10 mM Tris-HCl (pH 7.5), 1 mM dithiothreitol, 1 mM EDTA, 4% glycerol) for 10 minutes at room temperature. Gel supershift assays were performed as described above, except that antibodies specific for various promoter-binding proteins were added after the initial binding reaction and the mixture was incubated overnight at 4° C. The samples were then fractionated by electrophoresis on a 4% polyacrylamide gel at 10 mA at 4° C. in 0.3×TBE running buffer. The gel was then dried and exposed to x-ray film at -70° C. overnight.

For a further series, the system named is bak promoter GAS. The series is classed as cell-based, human. How it is done: as §1

On to “Double-stranded deoxyinosine-deoxycytosine copolymer [poly (I-C), reference compound]”, for which the “IRF protein binding to Bak ISRE (complexes C1, C2, C3)” value in the series on bak intron 1 ISRE was “enhanced”. In addition, the “specific protein binding to Bak GAS (complex C1)” value with bak promoter GAS is “not observed”.
